A word on the Ki: it is the dissociation constant of the complex between target and ligand, obtained from inhibition or displacement.

Protein sequences, listed by entry. Tags and fused reporters are not part of them.
UniProt P10696, whole entry, looked up: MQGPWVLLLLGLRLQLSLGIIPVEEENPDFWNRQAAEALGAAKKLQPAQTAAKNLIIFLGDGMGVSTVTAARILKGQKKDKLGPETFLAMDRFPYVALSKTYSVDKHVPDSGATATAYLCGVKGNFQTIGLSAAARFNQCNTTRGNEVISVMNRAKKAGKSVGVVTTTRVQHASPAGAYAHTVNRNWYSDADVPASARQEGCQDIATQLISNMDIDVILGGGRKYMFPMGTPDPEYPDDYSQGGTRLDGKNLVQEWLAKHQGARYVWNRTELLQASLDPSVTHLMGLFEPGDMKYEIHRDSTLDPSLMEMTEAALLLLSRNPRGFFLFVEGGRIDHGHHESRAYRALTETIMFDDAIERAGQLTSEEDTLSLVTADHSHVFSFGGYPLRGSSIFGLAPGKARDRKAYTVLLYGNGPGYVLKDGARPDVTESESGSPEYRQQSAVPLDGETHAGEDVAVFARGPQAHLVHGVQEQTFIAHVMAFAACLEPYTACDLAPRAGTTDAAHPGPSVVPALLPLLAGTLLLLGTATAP
UniProt P08289, whole entry, looked up: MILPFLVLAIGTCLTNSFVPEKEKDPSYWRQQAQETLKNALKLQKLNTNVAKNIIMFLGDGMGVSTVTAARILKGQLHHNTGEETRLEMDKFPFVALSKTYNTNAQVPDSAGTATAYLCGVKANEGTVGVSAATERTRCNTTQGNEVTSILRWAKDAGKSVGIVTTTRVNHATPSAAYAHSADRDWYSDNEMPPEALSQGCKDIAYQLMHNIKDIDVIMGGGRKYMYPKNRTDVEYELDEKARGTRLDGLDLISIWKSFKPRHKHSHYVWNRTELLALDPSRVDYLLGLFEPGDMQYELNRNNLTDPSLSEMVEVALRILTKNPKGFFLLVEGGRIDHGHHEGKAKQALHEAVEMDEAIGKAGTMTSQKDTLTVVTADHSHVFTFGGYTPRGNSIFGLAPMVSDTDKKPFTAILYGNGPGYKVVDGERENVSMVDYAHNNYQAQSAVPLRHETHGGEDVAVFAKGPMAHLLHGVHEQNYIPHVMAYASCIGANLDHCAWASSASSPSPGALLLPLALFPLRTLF
UniProt P03772, whole entry, looked up: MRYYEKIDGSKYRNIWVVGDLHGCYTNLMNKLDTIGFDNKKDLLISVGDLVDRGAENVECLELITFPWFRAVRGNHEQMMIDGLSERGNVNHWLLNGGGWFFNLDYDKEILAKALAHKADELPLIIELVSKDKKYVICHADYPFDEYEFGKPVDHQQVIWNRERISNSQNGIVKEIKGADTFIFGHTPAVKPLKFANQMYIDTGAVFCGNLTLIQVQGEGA

This passage reports Ki results from BindingDB's records for 12904075.

For test [1], the target named is Alkaline phosphatase, germ cell type (Homo sapiens, UniProt P10696). As to the kind of experiment: ASSAY_NAME: ChEMBL_157081 (CHEMBL765525) DESCRIPTION: Inhibition of Human Placental alkaline Phosphatase (PLAP).
Test [2] concerns the target Alkaline phosphatase, tissue-nonspecific isozyme (Rattus norvegicus, UniProt P08289). The test can be described thus: ASSAY_NAME: ChEMBL_29961 (CHEMBL640395) DESCRIPTION: Inhibitory activity against Escherichia coli Alkaline Phosphatase.
Test [3] deals with Serine/threonine-protein phosphatase (Lambdavirus lambda, UniProt P03772). The test can be described thus: ASSAY_NAME: ChEMBL_96757 (CHEMBL705380) DESCRIPTION: Inhibitory activity against Serine/Threonine Protein Phosphatase (Lambda protein phosphatase).

Consider `CCCP(=O)(O)O`, for which the inhibitory constant (Ki) came out at 1.55 mM in test [1] and 0.61 mM in test [2].

As to `CP(=O)(O)O`, the inhibition constant (Ki) was determined as 11 mM in test [1] and 1.01 mM in test [3].

On to `CP(O)(O)=S`, for which the inhibitory constant (Ki) in test [1] came to 19 mM; in test [3], 17 mM.
